One compound from patent publication US9034877B2 (Wayne State University, priority 2009, dated 2015) can be followed below.

Protein sequences, listed by entry. Tags and fused reporters are not part of them. Lines headed by an entry give the natural chain unless they say otherwise; changes in a name come on top.
UniProt P61169, whole entry: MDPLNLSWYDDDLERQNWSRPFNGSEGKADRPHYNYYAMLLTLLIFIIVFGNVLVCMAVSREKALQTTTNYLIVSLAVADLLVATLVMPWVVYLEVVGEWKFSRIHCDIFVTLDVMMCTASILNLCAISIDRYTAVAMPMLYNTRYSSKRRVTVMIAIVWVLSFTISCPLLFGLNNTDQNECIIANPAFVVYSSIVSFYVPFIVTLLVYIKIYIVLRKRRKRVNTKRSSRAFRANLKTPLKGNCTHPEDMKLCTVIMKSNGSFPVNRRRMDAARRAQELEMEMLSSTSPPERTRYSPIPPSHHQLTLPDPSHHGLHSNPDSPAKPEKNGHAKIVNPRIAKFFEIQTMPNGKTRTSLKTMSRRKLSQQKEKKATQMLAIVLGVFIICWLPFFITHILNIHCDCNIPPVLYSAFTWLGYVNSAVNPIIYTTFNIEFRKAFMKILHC

The assay addresses T1, D2L receptor (Rattus norvegicus, UniProt P61169).
T1 construct: expressed in transfected cells
Put plainly: Inhibition of [3H]spiperone binding to cloned D2L receptors expressed in HEK-293 cells. The settings on record: rat D2L in HEK-293 cells, read-out: Ki, D2 receptor.

As usually defined, the Ki is a dissociation constant, usually derived from enzyme kinetics or from competition with a known ligand. Regarding `CCCN(CCN1CCN(c2ccnc3c(O)cccc23)CC1)C1CCc2ccc(O)cc2C1` (stereo not shown) [Compound 19a], the Ki was determined as 15.9 nM.
